The experiment has as its system OVCAR-3 human ovarian cancer. Briefly: i.p. OVCAR-3 tumor, i.p. treatment, survival. To be noted: treated days 1, 3, 5, 7 and 9 i.p., 12.5 mg/kg; long-term survivors not included.

On to `CC(=O)O[C@H]1C(=O)[C@@]2(C)[C@H]([C@H](OC(=O)c3ccccc3)[C@]3(O)C[C@H](OC(=O)[C@H](O)[C@@H](NC(=O)c4ccccc4)c4ccccc4)C(C)=C1C3(C)C)[C@]1(OC(C)=O)CO[C@@H]1C[C@@H]2O` [Paclitaxel, reference compound], for which the “MST Days ± SEM (n)” value is on record as 145 ± 8 (5) Days and the Median survival time was 145 days.

(Values after patent US6482850B2, “Hydrolysis-promoting hydrophobic taxane derivatives” (priority 1995, dated 2002).)
